Data published in US20030180797A1, “Identification of ligands for a receptor family and related methods” (priority 2002, published 2003).

Tests used:
[1] = biological target: human inosine monphosphate dehydrogenase II (IMPDH) (Homo sapiens, UniProt P12268); assay: Inosine-5'-monophosphate dehydrogenase (IMPDH) kinetic spectrophotometric assay, NAD+ reduction; conditions: read-out: IC50 for IMPDH; common ligand mimics, FIG. 11, 13
human Aldose Reductase = human Aldose Reductase (Homo sapiens, UniProt P15121); assay: Aldose reductase (AR) kinetic spectrophotometric assay; conditions: read-out: IC50 for AR; common ligand mimics, FIG. 11

Row | Structure (SMILES) | IC50 [1] [nM] | IC50 (human Aldose Reductase) [nM]
1 | N=C1NC(=O)/C(=C/c2ccc(O)c([N+](=O)[O-])c2)S1 | > 75000 | 
2 | O=C1NC(=O)/C(=C/c2ccc(-c3ccc(C(=O)O)cc3)o2)S1 |  | 2300
